From patent publication EP1593384A2, “Compositions for treatment of sexual dysfunction” (Palatin Technologies, Inc., priority 1999, dated 2005)

Experiments:
[1] = Pharmacokinetics after IV administration, plasma levels by MCR-binding bioassay; assay type: in vivo; details: rats, 100 µg/kg, FIG. 1
[2] = test system: Sprague Dawley rats; test: Observation for adverse side effects after intravenous dosing; details: 0.5 to 25 µg/kg, one-half hour observation
[3] = Pre-formulation stability study for nasal delivery; assay type: physicochemical; details: 825 mg/mL, twelve weeks, storage at 40° C
Method: A series of pre-formulation studies for nasal delivery were conducted.

[4] = Pharmacokinetics after IV administration, plasma levels by MCR-binding bioassay; assay type: in vivo; details: cynomolgus monkeys, 50 µg/kg, FIG. 2
[5] = Solubility of the peptide; assay type: physicochemical; details: 0.9% saline; acetate salt form
Method: For synthesis, an Fmoc-Lys(R^3)-p-alkoxybenzyl alcohol resin was transferred to a solid phase peptide synthesizer reactor with a mechanical stirrer. The R^3 group, such as 1-(1'-adamantyl)-1-methyl-ethoxycarbonyl (Adpoc), allyloxycarbonyl (Aloc) or 4-methyltrityl (Mtt), was removed and the next Fmoc-protected amino acid (Fmoc-Trp(Boc)-OH) was added to the resin through standard coupling procedures. The Fmoc protective group was removed and the remaining amino acids added individually in the correct sequence, by repeating coupling and deprotection procedures until the amino acid sequence was completed. After completion of coupling with the last Fmoc-amino acid derivative, Fmoc-Nle-OH, and cleavage of the Fmoc protective group, the exposed terminal amino group was acetylated with acetic anhydride and pyridine in N,N-dimethylformamide (DMF). The peptide-resin was dried and the Lys and Asp protective groups cleaved. […]

[6] = test system: men with psychogenic erectile dysfunction; details: subcutaneous, 0.025 to 0.157 mg/kg body weight; cited from earlier work
[7] = test system: Sprague Dawley rats; test: Induced penile erection by intranasal administration (dosing study); details: nasal administration
[8] = biological target: MC2-R; details: read-out: RELATIVE BINDING (KI) MC2-R; competitive inhibition; Y1 cells as receptor source
[9] = test system: Sprague Dawley rats; details: stated as known; cited from earlier work
[10] = biological target: MC4-R; details: read-out: RELATIVE BINDING (KI) MC4-R; competitive inhibition; transfected HEK 293 cells

| Substance | pharmacokinetic profile [1] | adverse side effects [2] | stability [3] | pharmacokinetic profile [4] | solubility [5] | transient side effects [6] | adverse side effects [7] | Ki [8] | doses inducing side effects (excessive grooming, yawning, vacuous chewing, hypoactivity, heaving) [9] | Ki [10] |
| --- | --- | --- | --- | --- | --- | --- | --- | --- | --- | --- |
| Ac-Nle-cyclo(-Asp-His-D-Phe-Arg-Trp-Lys)-OH [Compound 1] | bi-phasic | No adverse side effects were observed | shows the stability of the peptide | bi-phasic | soluble in 0.9% saline | – | – | – | – | – |
| Melanotan-II | – | – | – | – | – | nausea, stretching and yawning, and decreased appetite | adverse side effects were seen with administration of higher doses | > 1000 nM | ≥ 300 µg/kg body weight | 1.03 nM |
